What was measured:
EHMT1 = EHMT1 (Homo sapiens, UniProt Q9H9B1); assay: EHMT1 PEP enzyme assay; format: biochemical; conditions: read-out: EHMT1 PEP (IC50 μM); Table 3
[1] = test system: H3K9me2 in MDA-MB-231 cells; assay: MDA-MB-231 H3K9me2 in-cell western assay (EHMT2 ICW); conditions: read-out: EHMT2 ICW (IC50 μM), Table 3
Description: MDA-MB-231 cell line was purchased from ATCC (Manassas, Va., USA). RPMI/Glutamax medium, Penicillin-Streptomycin, Heat Inactivated Fetal Bovine Serum, and D-PBS were purchased from Life Technologies (Grand Island, N.Y., USA). Odyssey blocking buffer, 800 CW goat anti-mouse IgG (H+L) antibody, and Licor Odyssey Infrared Scanner were purchased from Licor Biosciences, Lincoln, Nebr., USA. H3K9me2 mouse monoclonal antibody (Cat #1220) was purchased from Abcam (Cambridge, Mass., USA). 16% Paraformaldehyde was purchased from Electron Microscopy Sciences, Hatfield, Pa., USA). […]
Compound (100 nL) was added directly to 384-well cell plate. […] Plates were allowed to dry at room temperature then imaged on a Licor Odyssey Infrared Scanner (Licor Biosciences) which measured integrated intensity at 700 nm and 800 nm wavelengths. […]
First, the ratio for each well was determined by: […]
The average of the ratio values for each well was calculated and used to determine the percent inhibition for each test well in the plate. […] Percent inhibition was calculated as: […]
IC50 curves were generated using triplicate wells per concentration of compound. […] IC50 values were calculated using a non-linear regression (variable slope-four parameter fit model) with by the following formula: […]

By UniProt entry, the sequences of proteins in these tests, tags left out. Residues count along the entry.
UniProt Q9H9B1, whole entry: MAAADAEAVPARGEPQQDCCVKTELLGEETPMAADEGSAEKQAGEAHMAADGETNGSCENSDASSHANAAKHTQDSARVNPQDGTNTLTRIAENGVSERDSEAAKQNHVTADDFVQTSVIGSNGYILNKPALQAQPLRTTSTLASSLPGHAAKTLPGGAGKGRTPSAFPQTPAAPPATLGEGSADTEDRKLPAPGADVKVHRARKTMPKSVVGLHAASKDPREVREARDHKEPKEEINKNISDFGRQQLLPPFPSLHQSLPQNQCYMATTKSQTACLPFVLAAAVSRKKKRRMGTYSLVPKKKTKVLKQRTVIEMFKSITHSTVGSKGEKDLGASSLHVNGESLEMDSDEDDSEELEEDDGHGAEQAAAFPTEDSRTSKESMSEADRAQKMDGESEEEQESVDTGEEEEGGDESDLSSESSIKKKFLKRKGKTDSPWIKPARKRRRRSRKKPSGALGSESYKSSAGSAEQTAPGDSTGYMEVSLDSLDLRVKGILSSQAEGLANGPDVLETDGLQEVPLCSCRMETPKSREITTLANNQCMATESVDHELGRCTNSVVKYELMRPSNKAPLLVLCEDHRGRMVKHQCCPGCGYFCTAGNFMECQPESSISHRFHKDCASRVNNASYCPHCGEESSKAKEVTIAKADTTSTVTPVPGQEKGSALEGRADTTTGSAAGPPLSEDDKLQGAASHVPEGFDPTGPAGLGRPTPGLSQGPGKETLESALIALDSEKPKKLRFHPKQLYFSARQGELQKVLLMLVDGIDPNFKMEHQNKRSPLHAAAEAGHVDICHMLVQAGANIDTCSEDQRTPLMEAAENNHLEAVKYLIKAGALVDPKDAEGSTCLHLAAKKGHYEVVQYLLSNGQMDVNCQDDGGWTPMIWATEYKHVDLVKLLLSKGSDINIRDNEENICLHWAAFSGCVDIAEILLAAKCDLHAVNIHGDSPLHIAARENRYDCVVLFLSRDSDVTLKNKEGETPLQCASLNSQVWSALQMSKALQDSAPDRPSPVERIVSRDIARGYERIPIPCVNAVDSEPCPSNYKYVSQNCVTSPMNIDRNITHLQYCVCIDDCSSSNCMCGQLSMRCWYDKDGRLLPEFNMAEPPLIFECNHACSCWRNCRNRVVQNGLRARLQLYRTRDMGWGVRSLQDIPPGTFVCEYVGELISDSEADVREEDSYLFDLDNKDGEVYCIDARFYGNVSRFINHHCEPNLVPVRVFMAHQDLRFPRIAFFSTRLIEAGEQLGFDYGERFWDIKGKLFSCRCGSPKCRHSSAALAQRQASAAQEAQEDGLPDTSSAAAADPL
UniProt Q96KQ7, 913-1193 limits assumed: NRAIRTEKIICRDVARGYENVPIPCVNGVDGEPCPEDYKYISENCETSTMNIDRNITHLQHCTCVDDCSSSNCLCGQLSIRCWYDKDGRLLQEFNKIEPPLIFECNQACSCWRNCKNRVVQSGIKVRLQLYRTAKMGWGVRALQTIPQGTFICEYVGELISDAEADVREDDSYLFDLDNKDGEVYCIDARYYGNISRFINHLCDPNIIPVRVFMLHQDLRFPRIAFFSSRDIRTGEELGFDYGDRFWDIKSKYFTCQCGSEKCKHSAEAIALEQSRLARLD

human EHMT2 913-1193 = human EHMT2 913-1193 (Homo sapiens, UniProt Q96KQ7); assay: EHMT2 enzyme assay on histone peptide substrate; conditions: read-out: EHMT2 PEP (IC50 μM); Table 3; histone H3 1-15 peptide, balanced conditions
Description: Recombinant purified human EHMT2 913-1193 ([…]) synthesized by Viva was used for all experiments. Biotinylated histone peptides were synthesized by Biopeptide and HPLC-purified to >95% purity. Streptavidin Flashplates and seals were purchased from PerkinElmer and 384 Well V-bottom Polypropylene Plates were from Greiner. ^3H-labeled S-adenosylmethionine (^3H-SAM) was obtained from American Radiolabeled Chemicals with a specific activity of 80 Ci/mmol. Unlabeled SAM and S-adenosylhomocysteine (SAH) were obtained from American Radiolabeled Chemicals and Sigma-Aldrich respectively. Flashplates were washed in a Biotek ELx-405 with 0.1% Tween. 384-well Flashplates and 96-well filter binding plates were read on a TopCount microplate reader (PerkinElmer). Compound serial dilutions were performed on a Freedom EVO (Tecan) and spotted into assay plates using a Thermo Scientific Matrix PlateMate (Thermo Scientific). Reagent cocktails were added by Multidrop Combi (Thermo Scientific).
10-point curves of test compounds were made on a Freedom EVO (Tecan) using serial 3-fold dilutions in DMSO, beginning at 2.5 mM (final top concentration of compound was 50 t and the DMSO was 2%). […] 384-well Flashplates were read on a TopCount microplate reader (PerkinElmer).

IC50 (EHMT1): 0.1 to 1 µM | IC50 [1]: 1 to 10 µM | IC50 (human EHMT2 913-1193): 1 to 10 µM
Structure (SMILES): CCc1ccc(Nc2nc(C)cc(NC)n2)cc1CNCCN1CCCC1
